From patent US7018987B1 (priority 1998, dated 2006)

Assay: Solubility in water
Details: mg per 1 ml water at 25° C.

Substance	Solubility [µg/mL]
Adenosine combretastatin A-4 3′-O-phosphate [Compound 5m]	4000
Calcium combretastatin A-4 3′-O-phosphate [Compound 5a]	2000
Lithium combretastatin A-4 3-O-phosphate [Compound 5c]	6000
Morpholine combretastatin A-4 3′-O-phosphate [Compound 5h]	9000
Piperazine combretastatin A-4 3′-O-phosphate [Compound 5i]	1000
Pyrazole combretastatin A-4 3-O-phosphate [Compound 5k]	8000
